## Apparent affinities of Ab-91 variants for a coronavirus HR2 peptide

The measurements come from Engelhart et al. 2022 (doi:10.1038/s41597-022-01779-4) through the FLAb antibody collection.

The target is the same throughout: PDVDLGDISGINAS, from the HR2 region of SARS-CoV-2 spike.

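Variants in AAYL51 differ from the parent at up to three CDR positions; double and triple changes were sampled at random. The assay is AlphaSeq: two haploid yeast populations carry antibody and antigen on their surface. Pairs that bind mate more often; barcode pairs of the diploids are counted by sequencing. Scores were corrected for input abundance and mapped to Kd with protein pairs of known affinity run in the same pool. Mating was done three times.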

The variants keep the light chain, the linker and the frameworks of Ab-91 (scFv order VL, a 15-residue (Gly4Ser)3 linker, VH).
VL: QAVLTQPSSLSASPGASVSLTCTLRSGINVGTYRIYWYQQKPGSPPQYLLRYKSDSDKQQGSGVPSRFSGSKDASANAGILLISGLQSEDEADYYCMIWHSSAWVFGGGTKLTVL
VH: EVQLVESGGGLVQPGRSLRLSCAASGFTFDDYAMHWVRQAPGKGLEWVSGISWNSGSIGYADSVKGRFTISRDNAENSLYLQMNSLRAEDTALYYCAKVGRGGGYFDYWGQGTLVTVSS

Variants are written as CDR1, CDR2 and CDR3 of the heavy chain (limits as in the source). Parent: GFTFDDYAMH, GISWNSGSIGYADSVK, VGRGGGYFDY.
The read-out is the apparent dissociation constant on a log10 scale (nM): the lower, the stronger.
Averages over replicates are reported, and they cover detected replicates only.
"nd" marks a missing value. The strain was present, yet no cells mated with the target were sequenced in that replicate, which points to weak or no binding.

CDR-H1 | CDR-H2 | CDR-H3 | log10 Kd, replicates | mean log10 Kd (nM) | signal with controls
GFTFDDYAMS | GISWNSGSIGYADSVK | PARGGGYFDY | 4.60 / 5.42 / nd | 5.01 | 6/9 (4.46)
GFTFDDYAMY | GISWNSGSIGYADSVK | VGRGMGYFDQ | nd / nd / nd | nd | 0/9
GATFDDYAMH | GISWNSGSIGYADSVK | PGRFGGYFDY | 4.68 / 4.19 / nd | 4.44 | 2/9 (4.95)
GFTFDDYAMH | GISWNSGSIGYADSVK | VGTGGGGFGY | nd / nd / nd | nd | 0/9
GFTFDDYAMH | GHSWNSWSIGHADSVK | VGRGGGYFDY | nd / nd / nd | nd | 1/9 (3.77)
GFTFDDYAMH | GISWNPGSIGYADSVK | VGRGGGYRDY | nd / nd / nd | nd | 1/9 (3.13)
GFTFIDYAMM | GISWNSGIIGYADSVK | VGRGGGYFDY | 4.35 / nd / 4.21 | 4.28 | 2/9 (4.48)
GFKFDDYAMH | GISWNSGSIGYAISVK | VGRFGGYFDY | 3.44 / 4.46 / 4.28 | 4.06 | 5/9 (5.21)
GFTFDDYAWH | GISWNSGSIGYADSVK | VGRGGGYFYK | nd / nd / nd | nd | 0/9
FFTFDIYAMH | GISWNSGSIGYADSVK | VGRGGGYFDY | nd / nd / nd | nd | 0/9
GFTFDDYAME | GPSWNSGSIGYADSVK | VGRGGGYFDI | 4.56 / 4.96 / nd | 4.76 | 2/9 (4.32)
GFTEDDYAMH | GISWNSGSIGYADSVK | VGHRGGYFDY | nd / nd / nd | nd | 5/9 (5.07)
GFTFLDPAMH | GQSWNSGSIGYADSVK | VGRGGGYFDY | nd / nd / 5.15 | 5.15 | 5/9 (4.92)
GFTFDDYAMH | GISVNSGSIGYDDSVK | VGRGGGYFDY | 1.95 / 2.59 / 2.40 | 2.31 | 5/9 (4.71)
GFTFDDYAMH | GTSWNSGSIGYADSNK | VGRNGGYFDY | nd / nd / nd | nd | 0/9
GCTNDDYAMH | GISWNSGSIGYADSVK | VGRTGGYFDY | nd / 4.50 / nd | 4.50 | 1/9 (5.31)
GFTFDDTAMT | GISWNSGSCGYADSVK | VGRGGGYFDY | nd / nd / nd | nd | 0/9
GATFDDYAMH | GISWNSGSIPLADSVK | VGRGGGYFDY | 4.97 / 5.24 / nd | 5.10 | 6/9 (4.69)
GFTFDDYAMH | GISWNSCSGGQADSVK | VGRGGGYFDY | nd / 5.94 / nd | 5.94 | 3/9 (5.22)
GFTCDDYAMH | GISWNSGSIGYADCVK | VGRGGGWFDY | nd / nd / nd | nd | 1/9 (2.59)
GMTFDDYAMH | SISWNSGSIGYADSVK | VGRGGGYFDY | 5.40 / nd / nd | 5.40 | 4/9 (4.65)
GFTFDYYAMH | GISWNSGSIGYADSVK | VGRGGGLFDY | 1.43 / 0.96 / nd | 1.20 | 0/9
GFTFDDYAMH | GISWNSLSIGYADSVK | VGRGGGYFAY | 2.17 / 2.27 / 1.87 | 2.10 | 3/9 (4.53)
GFTFDMYAMH | GISWNSGSIGFADSVA | VGRGGGYFDY | 2.16 / 2.35 / 2.37 | 2.29 | 0/9
GFTFDDYAMH | GISWNKGSIGYADSVE | VGRGGGYCDY | nd / nd / nd | nd | 0/9
GFTFDDYAMH | GISWNSGSIGYADCVK | VGEGGAYFDY | 3.93 / nd / nd | 3.93 | 1/9 (4.00)
GFTWDDYAMH | GISQNSGSIEYADSVK | VGRGGGYFDY | nd / nd / nd | nd | 1/9 (3.77)
GFTFDDYAMH | GISWNSGSIFYADSVK | VHDGGGYFDY | 4.98 / 6.42 / nd | 5.70 | 9/9 (4.64)
GFTFDDYALH | GQSWLSGSIGYADSVK | VGRGGGYFDY | nd / nd / nd | nd | 0/9
GFTFDDYAMH | GISWNSKSIGRADSVK | IGRGGGYFDY | nd / nd / nd | nd | 0/9
GFTFDDYIMH | GRSWNSGSIGYADSGK | VGRGGGYFDY | 5.18 / nd / nd | 5.18 | 0/9
GFTFDDYAMH | GISWNSGSIGVADIVK | VGRGGGNFDY | 2.98 / 2.88 / 2.22 | 2.70 | 1/9 (2.54)
GFTFDDYAMH | GISWNSGSIGYADSVK | VGEGGGYFDY | nd / nd / nd | nd | 4/9 (3.72)
GFTFDDYAHH | GISWNSGSVGYADSVK | VERGGGYFDY | 4.41 / 4.90 / 4.11 | 4.47 | 1/9 (4.47)
GFAFDDYAMH | GISWNSDSIGSADSVK | VGRGGGYFDY | 3.07 / 2.97 / 2.67 | 2.90 | 3/9 (5.52)
GFTFDDYAMT | GISWNSGSIGYADSVK | VGRGAGCFDY | 4.78 / 5.46 / nd | 5.12 | 4/9 (4.97)
GFTFDDYAMH | GISHELGSIGYADSVK | VGRGGGYFDY | 4.40 / 6.32 / nd | 5.36 | 5/9 (5.02)
GFTFDDYAMH | GNSWNSGSIGYIDSVK | VGGGGGYFDY | nd / nd / nd | nd | 1/9 (6.05)
GFTTDDNAMH | GISWNSGSIGYADSVK | VGRGFGYFDY | 4.80 / nd / nd | 4.80 | 5/9 (4.82)
GFTFDYYAMH | SISWNSGSIGYADSVK | VGRGGGYFDR | nd / nd / nd | nd | 1/9 (4.63)
GFTCDDYAMH | GISWNSGSIGYADSVK | VGRKGGYFDT | 4.96 / nd / nd | 4.96 | 1/9 (1.99)
GFTFDDYATR | GISWNSGSIGYADFVK | VGRGGGYFDY | nd / 3.62 / 3.51 | 3.57 | 1/9 (5.11)
GFTFDWYAMH | GISWNRESIGYADSVK | VGRGGGYFDY | nd / nd / nd | nd | 0/9
GFTFDDYIMH | GISWNSGSIGYADSWD | VGRGGGYFDY | nd / nd / nd | nd | 0/9
GCTFDDYAMH | GISWSSGSIGYADSVK | VMRGGGYFDY | nd / nd / nd | nd | 0/9
GFTHDDYAMH | GISWNWGSIGYAWSVK | VGRGGGYFDY | nd / nd / nd | nd | 0/9
GFTFDDMACH | GISWNSGSIGYADSVK | VGRGGWYFDY | 4.98 / nd / nd | 4.98 | 4/9 (4.92)
GFTFDDYAMH | GISWNSASIGYAVSVP | VGRGGGYFDY | 4.12 / nd / 3.78 | 3.95 | 1/9 (4.14)

Extract of 8 entries:

CDR-H1,CDR-H2,CDR-H3,"log10 Kd, replicates",mean log10 Kd (nM),signal with controls
GFTFDDYALH,GQSWLSGSIGYADSVK,VGRGGGYFDY,nd / nd / nd,nd,0/9
GFAFDDYAMH,GISWNSDSIGSADSVK,VGRGGGYFDY,3.07 / 2.97 / 2.67,2.90,3/9 (5.52)
GFTFDDYAMS,GISWNSGSIGYADSVK,PARGGGYFDY,4.60 / 5.42 / nd,5.01,6/9 (4.46)
GFTWDDYAMH,GISQNSGSIEYADSVK,VGRGGGYFDY,nd / nd / nd,nd,1/9 (3.77)
GFTFDDYAMH,GTSWNSGSIGYADSNK,VGRNGGYFDY,nd / nd / nd,nd,0/9
GFTFIDYAMM,GISWNSGIIGYADSVK,VGRGGGYFDY,4.35 / nd / 4.21,4.28,2/9 (4.48)
GFTFDDYAWH,GISWNSGSIGYADSVK,VGRGGGYFYK,nd / nd / nd,nd,0/9
GFTTDDNAMH,GISWNSGSIGYADSVK,VGRGFGYFDY,4.80 / nd / nd,4.80,5/9 (4.82)

In this assay the parent's reference entry averaged 1.86; its copy inside this library read 0.88.
Three control strains display no target. For library AAYL51, 21% of the pairings with them gave a signal, with a median of 4.54 and one signal in twenty below 3.26, so weak values seen in few replicates may be background. For each scFv, signals with the empty controls are counted beside the result, with their mean in brackets.